# Measurements: patent US8221566B1
# Some compounds may have been tested in ways that are not shown here.
# Tests used:
# Bacillus spores = test: Chamber swabs cultured for bacterial growth (cross-contamination check)
# [1] = tested on: Bacillus spores (anthrax surrogates); test: Overall viability and kill rate of all Bacillus spores after detonation exposure; settings: total anthrax surrogate spores (1.896±0.264)×10^7
structure (smiles),measurement,setting,value
O=[N+]([O-])N1CC(N(F)F)(N(F)F)CN([N+](=O)[O-])CC(N(F)F)(N(F)F)C1,Colony forming units (CFU),"Bacillus spores; Detonation 1, 0.4 h exposure",0 CFU
same,Colony forming units (CFU),"Bacillus spores; Detonation 2, 2.9 h exposure",0 CFU
same,Colony forming units (CFU),"Bacillus spores; Detonation 3, 24.0 h exposure",0 CFU
same,Kill rate,[1],> 7 log10 orders of magnitude
